Values quoted from earlier work, collected in PMC3395807 (Journal of Medicinal Chemistry, 2012).

Test system: DENV
Settings: cited from earlier work

In the case of `CCC(O)(CC)CCCCCCN1C[C@H](O)[C@@H](O)[C@H](O)[C@H]1CO` [Compound 7, (2R,3R,4R,5S)-1-(7-Ethyl-7-hydroxynonyl)-2-(hydroxymethyl)piperidine-3,4,5-triol], the “survival in mouse models of lethal dengue virus infection” value is given as “protection of mice from death”.
